Laboratory results as given in PubChem BioAssay (NCI).
Several values for one entry are separate records, joined by “and”; a condition that tells them apart may be missing. Equal values may be shown once. This is a selection; strong and weak results do not stand in their true shares.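 In brief: 96-well plates, 48 h treatment, single concentration, percent growth endpoint.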 Activity calls are given as the source filed them. How the source made its calls: active means growth percent below 10; inactive means the rest.

system: OVCAR-5 ovarian; test: NCI-60 one-dose screen, 48 h (100 = growth as untreated, 0 = no growth, -100 = all killed); conditions: 10 µM unless noted

Row | SMILES | growth
1 | O=C(OC1CN2CCC1CC2)c1ccccc1 (stereo not given) | inactive: 96.7%
2 | O=C(c1ccc([N+](=O)[O-])cc1)N(CCCl)CCCl | inactive: 104%
3 | CCCCCCCCCCNP(=S)(Cl)Cl | inactive: 98.2%
4 | COc1cc([N+](=O)[O-])c(Nc2ccc(Cl)cc2[N+](=O)[O-])c([N+](=O)[O-])c1 | inactive: 79.7%
5 | O=[As]c1ccc(S(=O)(=O)Nc2ccccc2)cc1 (stereo not given) | inactive: 10.8%
6 | Cc1ccc(S(=O)(=O)CN(CCCl)CCCl)cc1 | inactive: 116%
7 | CCCN(CCCl)C1c2ccccc2-c2ccccc21 | inactive: 94.5%
8 | CC(Cl)CN(CC(C)Cl)C(=O)c1ccccc1 (stereo not given) | inactive: 109%
9 | CC(Cl)CN(CC(C)Cl)C(=O)OCC(N)C(=O)O (stereo not given) | inactive: 109% and inactive: 94.2%
10 | C[As](=O)(O)c1cccc(C(=O)O)c1 | inactive: 97.6%
11 | Cc1ccc(S(=O)(=O)N(CCCN)CCCc2c(C)nc(N)[nH]c2=O)cc1 | inactive: 103%
12 | Cn1c(COc2ccc([N+](=O)[O-])cc2[N+](=O)[O-])cnc1[N+](=O)[O-] | inactive: 107%
13 | O=[N+]([O-])c1ccc(CCCCCCc2ccc([N+](=O)[O-])cc2[N+](=O)[O-])c([N+](=O)[O-])c1 | inactive: 112%
14 | CCSC(O)C(Cl)(Cl)Cl (stereo not given) | inactive: 100%
15 | O=[N+]([O-])c1cc(Cl)cc([N+](=O)[O-])c1O | inactive: 107%
16 | OP1OCCO1 | inactive: 109%
17 | N#CC(C#N)=C(C#N)N(CCCl)CCCl | inactive: 108%
18 | CC[C@H](C)[C@@H]1NC(=O)/C(=C(\C)O)C1=O | inactive: 103%

system: OVCAR-4 ovarian; test: as above; conditions: 10 µM unless noted

Row | SMILES | growth
19 | CC1CCNP(=O)(N(CCCl)CCCl)O1 (stereo not given) | inactive: 112%
20 | CCN(CCCl)CC1OC(O)C(O)C1O (stereo not given) | inactive: 120%
21 | CN(CCCl)/N=N/c1nc2nc[nH]c(=O)c2[nH]1 | inactive: 98.4%
22 | Nc1ccc(N(CCCl)CCCl)cc1 | inactive: 96.3%
23 | c1cc(-c2nn[nH]n2)ccc1-c1nn[nH]n1 | inactive: 94.5%
24 | CCCC1OP(N)(=O)OCC1CC (stereo not given) | inactive: 130% and inactive: 104%
25 | CCOP(=S)(OCC)OCC | inactive: 100%
26 | CCOP(=S)(OCC)SCCCl | inactive: 109%
27 | CN(C)P1(Cl)=NP(Cl)(N(C)C)=NP(Cl)(N(C)C)=N1 (stereo not given) | inactive: 109%
28 | Nc1ccc(CCCCOc2ccccc2)cc1 | inactive: 68.3%
29 | O=[N+]([O-])c1cccc(Oc2ccc([N+](=O)[O-])cc2[N+](=O)[O-])c1 | inactive: 45.3%
30 | CCN(CC)[P+](c1ccc(OC)cc1OC)(N(CC)CC)N(CC)CC | inactive: 35.3%
31 | O=C(Nc1ccc([N+](=O)[O-])cc1)N(CCBr)CCBr | inactive: 98.2%
32 | O=P1(N(CCCl)CCCl)Nc2ccccc2N1 | inactive: 108%
33 | ClCCNCc1ccccc1 | inactive: 110%
34 | O=C(O)/C=C\c1cccc(N(CCCl)CCCl)c1 | inactive: 119%

Row | SMILES | growth
35 | O=C(O[C@H]1CN2CCC1CC2)C1NCc2ccccc2[C@@H]1c1ccccc1 (stereo not given in full) | inactive: 108%
36 | CC(=O)Nc1ccc([As](=O)(O)O)c(O)c1 | inactive: 103%
37 | ClCCN1CCNCC1 | inactive: 109%
38 | Cc1cc([N+](=O)[O-])cc([N+](=O)[O-])c1O | inactive: 107%
39 | O=C(OC1CN2CCC1CC2)c1ccccc1 (stereo not given) | inactive: 112%
40 | O=C(c1ccc([N+](=O)[O-])cc1)N(CCCl)CCCl | inactive: 102%
41 | CCCCCCCCCCNP(=S)(Cl)Cl | inactive: 111%
42 | COc1cc([N+](=O)[O-])c(Nc2ccc(Cl)cc2[N+](=O)[O-])c([N+](=O)[O-])c1 | inactive: 90.1%
43 | O=[As]c1ccc(S(=O)(=O)Nc2ccccc2)cc1 (stereo not given) | inactive: 57.3%
44 | Cc1ccc(S(=O)(=O)CN(CCCl)CCCl)cc1 | inactive: 96.9%
45 | CCCN(CCCl)C1c2ccccc2-c2ccccc21 | inactive: 97.5%
46 | CC(Cl)CN(CC(C)Cl)C(=O)c1ccccc1 (stereo not given) | inactive: 63.9%
47 | CC(Cl)CN(CC(C)Cl)C(=O)OCC(N)C(=O)O (stereo not given) | inactive: 108% and inactive: 107%
48 | C[As](=O)(O)c1cccc(C(=O)O)c1 | inactive: 95.7%
49 | Cc1ccc(S(=O)(=O)N(CCCN)CCCc2c(C)nc(N)[nH]c2=O)cc1 | inactive: 99%
50 | Cn1c(COc2ccc([N+](=O)[O-])cc2[N+](=O)[O-])cnc1[N+](=O)[O-] | inactive: 97.9%
